Literature values as cited in paper PMC4276913.

Sequences of proteins named here, by UniProt entry; tags and fusion partners are left off. Residues count along the entry.
UniProt Q15819, 2-145, chain 1 of 2: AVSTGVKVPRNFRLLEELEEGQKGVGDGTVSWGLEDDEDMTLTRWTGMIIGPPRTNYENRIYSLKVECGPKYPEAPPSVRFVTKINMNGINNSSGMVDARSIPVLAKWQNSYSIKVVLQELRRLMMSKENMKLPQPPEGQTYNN

What was measured:
[1] = target: Mms2-Ubc13 (Homo sapiens) (UniProt Q15819)
Mms2 (Homo sapiens) = Mms2 (Homo sapiens) (UniProt Q15819)

Kd [1]: 28 µM
Kd (Mms2 (Homo sapiens)): 98 µM
Substance: ubiquitin (from UniProt P0CG48)
